Values quoted from earlier work, collected in paper PMC11314561, “Design and Synthesis of Novel Aminoindazole-pyrrolo[2,3-b]pyridine Inhibitors of IKKα That Selectively Perturb Cellular Non-Canonical NF-κB Signalling” (Molecules, 2024).

The chains behind the UniProt entries cited, without tags or fusion partners.
UniProt O15111, whole entry: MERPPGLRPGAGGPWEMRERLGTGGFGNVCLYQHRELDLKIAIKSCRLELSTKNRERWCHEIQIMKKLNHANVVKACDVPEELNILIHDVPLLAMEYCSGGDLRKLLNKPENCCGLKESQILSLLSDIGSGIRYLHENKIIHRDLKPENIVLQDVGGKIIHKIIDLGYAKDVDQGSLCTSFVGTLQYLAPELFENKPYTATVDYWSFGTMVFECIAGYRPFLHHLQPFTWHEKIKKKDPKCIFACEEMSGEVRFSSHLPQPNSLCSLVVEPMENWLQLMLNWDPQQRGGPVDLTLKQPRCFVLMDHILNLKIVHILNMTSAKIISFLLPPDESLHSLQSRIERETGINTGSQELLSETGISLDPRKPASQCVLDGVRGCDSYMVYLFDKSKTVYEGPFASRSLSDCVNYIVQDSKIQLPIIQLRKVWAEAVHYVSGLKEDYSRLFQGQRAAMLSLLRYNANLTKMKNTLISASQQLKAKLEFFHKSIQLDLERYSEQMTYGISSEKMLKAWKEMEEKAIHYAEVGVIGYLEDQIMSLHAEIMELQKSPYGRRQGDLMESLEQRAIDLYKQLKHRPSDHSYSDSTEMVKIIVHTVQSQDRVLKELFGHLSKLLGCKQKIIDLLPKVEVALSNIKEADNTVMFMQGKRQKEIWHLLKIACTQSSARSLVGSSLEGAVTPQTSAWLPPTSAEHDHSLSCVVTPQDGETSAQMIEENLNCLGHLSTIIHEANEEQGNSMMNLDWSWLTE

Molecular target: IKKα (Homo sapiens, UniProt O15111)
Conditions: read-out: Ki IKKα, previous hit; previous hit of the first series; cited from earlier work

SMILES: N#Cc1c[nH]c2nc(N)nc(-c3ccc(S(N)(=O)=O)cc3)c12
- Ki: 80 nM
